Biological target: Src / HA-FKBP12 (Homo sapiens (Human), UniProt P12931+P62942)
Settings: Jurkat cell lysates

Protein sequences, listed by entry. Tags and fused reporters are not part of them.
UniProt P62942, whole entry, looked up: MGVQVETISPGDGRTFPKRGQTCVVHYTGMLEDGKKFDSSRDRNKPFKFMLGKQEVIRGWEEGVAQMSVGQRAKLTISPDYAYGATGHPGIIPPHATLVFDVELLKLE

tacrolimus [FK506, reference compound]
Co-immunoprecipitation of Src with HA-FKBP12: not
